# Results reported in patent publication US20220409727A1, “Metal Complexes Bearing Bisstyryl-Bipyridine Ligand and Their Use as Photosensitizer Agent in One and Two-Photon Photodynamic Therapy” (Paris Sciences et Lettres, priority 2019, published 2022).
# Experiment: Luminescence lifetime measurements
# Assay type: physicochemical
# Conditions: air saturated CH3CN, excitation at 355 nm
# Experimental: For the determination of the lifetimes, the samples were prepared in an air saturated and in a degassed CH3CN solution with an absorbance of 0.2 at 355 nm. This solution was irradiated in fluorescence quartz cuvettes (width 1 cm) using a NT342B Nd-YAG pumped optical parametric oscillator (Ekspla) at 355 nm. The emission signal was focused and collected at right angle to the excitation pathway and directed to a Princeton Instruments Acton SP-2300i monochromator. As a detector a R928 photomultiplier tube (Hamamatsu) has been used.
substance,measurement,value
"[Ru(bipy)2((E,E′)-4,4′-Bis[p-(N,N-methoxy)styryl]-2,2′-bipyridine)][PF6]2 [Compound 7]",τ/ns air (Lifetime),96 ns
